This is a selection; strong and weak results do not stand in their true shares. Some salts and complexes are drawn in separate pieces, as the source files them; their charges need not balance. The source made the active and inactive calls. Calls come from the whole dose curve; as a rule, active = well fitted inhibition curve with a large enough effect; inconclusive = small, poorly fitted or top-dose-only effect, or effect the other way; inactive = flat fitted curve, though single readings scatter.

By UniProt entry, the sequences of proteins in these tests, tags left out.
UniProt O75604, whole entry: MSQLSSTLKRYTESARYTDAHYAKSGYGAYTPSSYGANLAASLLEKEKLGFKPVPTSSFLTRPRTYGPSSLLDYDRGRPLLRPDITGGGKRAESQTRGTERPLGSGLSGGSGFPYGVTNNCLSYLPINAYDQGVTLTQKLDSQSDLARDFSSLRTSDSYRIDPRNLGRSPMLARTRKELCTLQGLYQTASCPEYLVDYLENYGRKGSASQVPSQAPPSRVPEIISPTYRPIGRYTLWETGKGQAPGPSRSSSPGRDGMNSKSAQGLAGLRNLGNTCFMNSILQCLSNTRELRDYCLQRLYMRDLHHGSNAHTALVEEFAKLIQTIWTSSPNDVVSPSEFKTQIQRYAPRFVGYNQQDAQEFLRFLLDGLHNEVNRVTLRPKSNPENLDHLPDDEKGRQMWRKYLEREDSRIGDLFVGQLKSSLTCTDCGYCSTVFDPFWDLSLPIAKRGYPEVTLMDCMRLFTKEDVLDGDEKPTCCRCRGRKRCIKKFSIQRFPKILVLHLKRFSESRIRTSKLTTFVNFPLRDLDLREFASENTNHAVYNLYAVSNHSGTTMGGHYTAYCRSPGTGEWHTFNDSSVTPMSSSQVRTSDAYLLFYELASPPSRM

The target of the assay is Ubiquitin carboxyl-terminal hydrolase 2 (Homo sapiens) (UniProt O75604). The experiment in a line: qHTS Assay for Inhibitors of Ubiquitin-specific Protease USP2a Using CHOP2 as the Reporter. The note with it: USP2 core, Ub-CHOP2 coupled fluorogenic reporter, 485/531; at 38.3 µM (top of the series). An excerpt: NIH Molecular Libraries Screening Centers Network [MLSCN] NIH Chemical Genomics Center [NCGC] MLSCN Grant: XO1-MH079852-01 PI Name: Nicholson, Ben. Progenra Inc, Malvern, PA NCGC Assay Overview: Homeostasis of cellular proteins is maintained through a combination of synthesis and degradation. The pathway that accounts for the majority of protein degradation is the ubiquitin-proteasomal pathway. Ubiquitin (Ub) is highly conserved in all cells and the generation of a multi-Ub chain typically targets proteins for degradation by the proteasome. However, ubiquitination is highly reversible and dynamic. Deubiquitination, the reverse process, is catalyzed through the action of enzymes referred to as isopeptidases or deubiquitinating enzymes (DUBs). This group of enzymes is collectively responsible for maintaining adequate pools of free ubiquitin and regulating the ubiquitination status of cellular proteins. The class of DUBs referred to as the ubiquitin-specific proteases (USP) family functions endoproteolytically to cleave Ub chains from a wide range of protein substrates. USP2a deubiquitinates fatty acid synthase (FASN) which has recently been identified as an emerging oncology target. To identify inhibitors of USP2a a cell-free assay was employed. […] The reporter enzyme chosen is an enterokinase called CHOP2, which is activated when the Ub is cleaved by USP2. The free and now activated reporter can subsequently act on its reporter substrate. Thus, this coupled assay gives a fluorescent read-out at excitation/emission wavelengths of 485/531. The assay was developed by Progenra, Inc. and has been licensed for sale by LifeSensors, Inc. as Ub-CHOP2-Reporter-Kit (#PR1101).
NCGC Assay Protocol Summary: The assay buffer, prepared fresh at the day of the assay, contains 20mM Tris-HCl pH 8.0, 2mM CaCl2, 2mM beta-Mercaptoethanol, 0.05% CHAPS. 3ul of 20nM (10nM final) USP2 core, which is stored on ice, is dispensed into a medium-binding black solid Kalypsys 1,536 well plate using the Kalypsys dispenser. The assay plate is then pinned with 23nL compound with the Kalypsys pintool in columns 5-48. The controls are pinned as follows: column 1 two-fold dilutions of 2M NEM in duplicate; column 2 2M NEM (final concentration 38.2mM); column 3&4 DMSO. The assay plate is incubated at RT for 30min. Subsequently, 1.5uL of 100nM (25nM final) Ub-CHOP2 and 1.5uL of 100nM (25nM final) Reporter Substrate (both stored on ice and protected from light) were dispensed into the plate using the Kalypsys dispenser. Plates were read after 60min RT incubation on a ViewLux (Perkin Elmer) plate reader using the following wavelengths Ex 485nm /Em 531nm. Data were normalized to the to AC100 inhibition (NEM). Concentration-response curves were fitted to the normalized data and the concentration-response curves were then classified based on curve quality (r2), response magnitude and degree of measured activity. The time zero reading was used to flag fluorescence artifacts. Keywords: ubiquitination, deubiquitination, proteases, profluorescent, MLSMR, MLPCN, NIH Roadmap, qHTS, NCGC
In the case of `CCOC(=O)N1CCC(Nc2ccc(F)cc2)CC1`, the activity change, negative = inhibition was inactive: -0.263%.
Then `COc1ccc(NC2CCN(CCc3ccccc3)CC2)c(OC)c1`, with inactive: 0.914%; and `O=C(NCC1(N2CCCCC2)CCCCC1)c1ccc(F)cc1`, with inactive: 0.76%; and `CCCCOc1ccc(C(=O)NCC2(N3CCOCC3)CCCCC2)cc1`, with inactive: 0.268%.
Consider `CCOc1ccc(C)cc1CN(CCCl)CCCl`, for which the activity change, negative = inhibition was inactive: 1.63%.
Then `Cc1ccc(OCC(C)C)c(CN(CCCl)CCCl)c1`, with inactive: 10.3%; and `COc1cc(C(=O)NCC2(N(C)C)CCCCC2)ccc1OC(F)F`, with inactive: 2.82%; and `CCOC(=O)N1CCC(Nc2cccc(C)c2)CC1`, with inactive: 1.27%.
Then `CSc1ccccc1C(=O)NCC1(N2CCCCC2)CCCCC1`, with inactive: -1%; and `O=C(NCC1(N2CCCCC2)CCCCC1)c1cccs1`, with inactive: 1.81%.
As to `O=C(NCC1(N2CCCCC2)CCCCC1)c1ccc(=O)[nH]c1`, the activity change, negative = inhibition was inactive: -1.01%.
Turning to `CC(C)(C)OC(=O)N1CCC(N(C(=O)c2ccccc2)c2ccc(F)cc2)CC1`, the activity change, negative = inhibition was inactive: 1.96%.
Take `COc1ccc(C(=O)NCC2(N3CCCCC3)CCCCC2)c(OC)c1OC`: the activity change, negative = inhibition was inactive: 1.99%.
Then `COc1ccc(C(=O)NCC2(N3CCCCC3)CCCCC2)cc1`, with inactive: 9.84%.
Then `CCOC(=O)N1CCC(Nc2ccc(OC)cc2)CC1`, with inactive: 0.666%.
For `COc1ccc(Cl)cc1C(=O)NCC1(N2CCOCC2)CCCCC1` the value was inactive: -3.61%.
For `O=C(OC1CN2CCC1CC2)C1c2ccccc2Oc2ccccc21` (centres undefined), the activity change, negative = inhibition is inactive: -0.545%.
As for `O=C(NCC1(N2CCCCC2)CCCCC1)c1ccc(Cl)s1`, the activity change, negative = inhibition was inactive: 2.61%.
For `N#CC1(Nc2ccccc2)CCN(Cc2ccccc2)CC1` the value was inactive: 1.94%; for `O=C(NCC1(N2CCOCC2)CCCCC1)c1cc2ccccc2o1`, inactive: 2.42%.
Consider `Cc1cc(C)cc(N(C(=O)c2ccccc2)C2CCN(C(=O)OC(C)(C)C)CC2)c1`, for which the activity change, negative = inhibition was inactive: -0.146%.
For `O=C(NCC1(N2CCCCC2)CCCCC1)c1ccc(Cl)nc1` the value was inactive: -0.738%.
For `O=C(NCC1(N2CCOCC2)CCCCC1)c1cc(F)c(F)cc1Cl` the value was inactive: -4.21%; for `COc1cc(OC)c(C(=O)NCC2(N(C)C)CCCCC2)cc1OC`, inactive: -0.268%.
Regarding `CN(C)c1cccc(C(=O)NCC2(N3CCCCC3)CCCCC2)c1`, the activity change, negative = inhibition is inactive: 3.02%.
Then `O=[N+]([O-])c1cc([N+](=O)[O-])c(OC2CCCCC2O)c([N+](=O)[O-])c1` (centres undefined), with inactive: 0.294%; and `COc1ccc(CN(CCCl)CCCl)cc1Cl`, with inactive: -1.32%; and `CC(C)c1ccc(NC2CCN(C(=O)OC(C)(C)C)CC2)cc1`, with inactive: 0.294%.
Take `CCCOc1ccc(C(=O)NCC2(N(C)C)CCCCC2)cc1OC`: the activity change, negative = inhibition is inactive: -1.36%.
Consider `COc1ccc2c(c1O)-c1c(O)c(OC)cc3c1[C@H](C2)[N+](C)(C)CC3.O=[N+]([O-])c1cc([N+](=O)[O-])c([O-])c([N+](=O)[O-])c1[O-]`, for which the activity change, negative = inhibition is inactive: 8%.
For `O=C(NCC1(N2CCCCC2)CCCCC1)c1cncc(Br)c1` the value was inactive: 2.81%.
Turning to `O=C(OC1CN2CCC1CC2)c1ccc([N+](=O)[O-])cc1` (centres undefined), the activity change, negative = inhibition is inactive: 1.62%.
Then `O=C(NCC1(N2CCCCC2)CCCCC1)c1cccc([N+](=O)[O-])c1`, with inactive: -0.346%; and `CSc1ccc(C(=O)NCC2(N3CCOCC3)CCCCC2)cc1`, with inactive: -1.36%; and `N#CC1(Nc2ccccc2)CCN(CCc2ccccc2)CC1`, with inactive: 0.668%.
Regarding `CCN1CCC(Nc2ccc(Cl)cc2)CC1`, the activity change, negative = inhibition is inactive: 2.82%.
For the compound `O=C(NCC1(N2CCCCC2)CCCCC1)c1ccc(OC(F)F)cc1`, the activity change, negative = inhibition is inactive: -0.219%.
For `CC(C)c1ccc(C(=O)NCC2(N3CCOCC3)CCCCC2)cc1`, the activity change, negative = inhibition is inactive: 1.58%.
As to `COc1ccc(NC2CCN(C(=O)OC(C)(C)C)CC2)cc1`, the activity change, negative = inhibition is inactive: 12.6%.
Consider `CN1CCN(CCOC(=O)C(O)(c2ccccc2)c2ccccc2)CC1`, for which the activity change, negative = inhibition was inactive: 3.6%.
Then `O=C(NCC1(N2CCOCC2)CCCCC1)c1cc(=O)[nH]c2ccccc12`, with inactive: -5.46%.
On to `COc1cc(C(=O)NCC2(N3CCCCC3)CCCCC2)ccc1OC(F)F`, for which the activity change, negative = inhibition is inactive: -0.124%.
For `O=C(NCC1(N2CCCCC2)CCCCC1)c1cccc(C(F)(F)F)c1` the value was inactive: -0.763%; for `O=[N+]([O-])c1cc([N+](=O)[O-])c(NCC2CCS(=O)(=O)C2)c([N+](=O)[O-])c1` (centres undefined), inactive: -0.755%.
In the case of `CCOC(=O)C(CC)C1=NC(C)(C)Cc2ccccc21.O=[N+]([O-])c1cc([N+](=O)[O-])c(O)c([N+](=O)[O-])c1` (centres undefined), the activity change, negative = inhibition is inactive: 3.49%.
For the compound `CC(C)(C)OC(=O)N1CCC(N(C(=O)c2ccccc2)c2ccc(Cl)cc2)CC1`, the activity change, negative = inhibition was inactive: -3.06%.
As for `N#Cc1ccc(C(=O)NCC2(N3CCCCC3)CCCCC2)cc1`, the activity change, negative = inhibition is inactive: 0.985%.
For `CCCN1CCC(Nc2cc(OC)cc(OC)c2)CC1` the value was inactive: 0.482%; for `c1ccc(CN2CCC(Nc3ccccc3)CC2)cc1`, inactive: 0.763%; for `CN(C)C1(CNC(=O)c2cccc(C#N)c2)CCCCC1`, inactive: -5.67%.
For `COc1ccc(C(=O)NCC2(N3CCOCC3)CCCCC2)cc1OC` the value was inactive: 7.62%; for `O=C(NCC1(N2CCOCC2)CCCCC1)c1cc(Br)ccc1Cl`, inactive: -8.53%.
Then `COc1cc(C(=O)NCC2(N3CCOCC3)CCCCC2)cc(OC)c1C`, with inactive: -4.85%.
Turning to `O=C(O)c1cccc(Nc2c([N+](=O)[O-])cc([N+](=O)[O-])cc2[N+](=O)[O-])c1`, the activity change, negative = inhibition was inactive: 8.88%.
On to `O=C(OC1CN2CCC1CC2)C1c2ccccc2C=Cc2ccccc21` (centres undefined), for which the activity change, negative = inhibition is inactive: -1.16%.
In the case of `CCc1cc(C(=O)NCC2(N3CCCCC3)CCCCC2)sc1C`, the activity change, negative = inhibition is inactive: 2.82%.
For the compound `N/C(=N\O)c1c(N)no[n+]1[O-]`, the activity change, negative = inhibition is inactive: 0.458%.
With `CCOC(=O)N1CCC(Nc2ccc(C)cc2)CC1`, the activity change, negative = inhibition is inactive: 0.0596%.
Then `CCCOc1ccc(C(=O)NCC2(N(C)C)CCCCC2)cc1`, with inactive: 3.01%; and `O=C(O)C1(Nc2ccccc2)CCN(Cc2ccccc2)CC1`, with inactive: -0.92%.
Take `CC(C)(C)OC(=O)N1CCC(Nc2ccccc2)CC1`: the activity change, negative = inhibition was inactive: 2.51%.
For `CN1CCC(Nc2ccc(F)c(Cl)c2)CC1` the value was inactive: -1.27%.
For `CCOc1ncccc1C(=O)NCC1(N2CCOCC2)CCCCC1` the value was inactive: 0.0383%.
As for `CCCOc1ccc(C)cc1CN(CCCl)CCCl`, the activity change, negative = inhibition is inactive: 0.142%.
Take `CN1CCC(Nc2ccc(Cl)cc2)CC1`: the activity change, negative = inhibition is inactive: -0.44%.
For `CCC(CO)(C(=O)OC1CN2CCC1CC2)c1ccccc1` (centres undefined) the value was inactive: 0.443%.
Take `COc1cccc(C(=O)N(c2cc(C)cc(C)c2)C2CCN(C(=O)OC(C)(C)C)CC2)c1`: the activity change, negative = inhibition is inactive: -6.24%.
As to `COc1cc(OC)cc(C(=O)NCC2(N3CCOCC3)CCCCC2)c1`, the activity change, negative = inhibition is inactive: 2.53%.
For the compound `Fc1ccccc1NC1CCN(Cc2ccccc2)CC1`, the activity change, negative = inhibition is inactive: -1.45%.
As for `Cc1ccc(C(=O)NCC2(N3CCCCC3)CCCCC2)o1`, the activity change, negative = inhibition was inactive: 1.7%.
For `COc1cc(OC)cc(C(=O)NCC2(N3CCCCC3)CCCCC2)c1` the value was inactive: 1.44%.
On to `CN(C)c1ccc(C(=O)NCC2(N3CCCCC3)CCCCC2)cc1`, for which the activity change, negative = inhibition was inactive: 0.624%.
`O=C(NCC1(N2CCCCC2)CCCCC1)c1ccco1`: the activity change, negative = inhibition is inactive: 4.04%.
For the compound `CCN1CCC(Nc2cccc(F)c2)CC1`, the activity change, negative = inhibition was inactive: -2%.

Values taken from PubChem BioAssay AID463254 (National Center for Advancing Translational Sciences (NCATS), 2010).
